Experimental findings from patent US11702392B2, “Pyrimidinone derivatives as SHP2 antagonists” (MERCK PATENT GMBH, priority 2019, dated 2023) are described below.

This series is described as follows: Pharmacokinetics in female CD1 mice (oral / intravenous). Format: in vivo. The settings on record: mouse. As to the method:
Female CD1 mice (N=3) received a single oral (gavage) or a single intravenous (bolus) injection of compound. […] Consecutive blood samples were taken sub-lingually under isofluorane inhalation from animals after 0.083 (IV), 0.25, 0.5, 1, 2, 4, 6 and 24 h and were further processed to obtain plasma. Samples were protein precipitated and analysed by LC/MS/MS.

The compound `CC1(N)CCN(c2cnc(-c3cccc(Cl)c3Cl)c(N)n2)CC1` [SHP-099, reference compound] yielded a Fz of 74%.
